Target: recombinant PAX5 protein (human, UniProt Q02548)
Assay: pull-down

B1: recombinant OCT4-GST fusion protein (natural protein, human, UniProt Q01860 1-360, looked up)
chain: MAGHLASDFAFSPPPGGGGDGPGGPEPGWVDPRTWLSFQGPPGGPGIGPGVGPGSEVWGIPPCPPPYEFCGGMAYCGPQVGVGLVPQGGLETSQPEGEAGVGVESNSDGASPEPCTVTPGAVKLEKEKLEQNPEESQDIKALQKELEQFAKLLKQKRITLGYTQADVGLTLGVLFGKVFSQTTICRFEALQLSFKNMCKLRPLLQKWVEEADNNENLQEICKAETLVQARKRKRTSIENRVRGNLENLFLQCPKPTLQQISHIAQQLGLEKDVVRVWFCNRRQKGKRSSSDYAQREDFEAAGSPFSGGPVSFPLAPGPHFGTPGYGSPHFTALYSSVPFPEGEAFPPVSVTTLGSPMHSN
binding result: binds

From publication PMC5970969 (Nature cell biology, 2018)
